# Source: US8815806B2, “Yellow pea seed protein-derived peptides” (University of Manitoba, priority 2009, dated 2014)
# Target: T1, human recombinant renin (Homo sapiens, UniProt P00797)
# T1 construct: purchased Cayman Chemical; host or cells: HEK cells
# Assay: Renin inhibitory activity assay (fluorometric)
# Assay type: biochemical
# Conditions: Table 1; peptide concentration not given
# Procedure: Renin inhibitory activity assays were carried out on a Shimadzu RF 1501 spectrofluorometer equipped with thermostated cell holder according to the method of Wang, Chung, Holzman, & Krafft (1993) with some modifications (FIG. 5 and Table 1). The following instrumental parameters were used: excitation wavelength, 340 nm; emission wavelength, 490 nm; excitation and emission bandwidth, 10 nm. A standard 2 mL, 1 cm pathlength cuvettes containing 1 mL of buffer (or 1 mL varied peptide concentrations) and 1 mL of 2.5 μM substrate, was equilibrated at 37° C. for 5 min to gain thermal equilibrium. A 15 μL of renin (0.4 μg renin) was then added to the cuvette to initiate the reaction. The time dependent increase of fluorescence intensity was monitored for 5 min. The initial reaction velocity, expressed in arbitrary fluorescence units per minute (FU/min), was calculated by least-squares analysis of the initial phase of the reaction. The renin inhibiting activity of the peptide fractions and the individual peptides within are described in Table 1.
# Renin inhibiting assay was modified from the fluorometric assay developed for renin activity measurement (FIG. 5). […] The Michaelis-Menten constant (Km) in our study is 3.8 μM for human recombinant renin in the absence of peptide fractions. This value is close to the reported KM of 3.6 μM using the same source of renin and substrate under similar assay conditions (Holzman et al 1991). However, Km of human recombinant renin was also reported to be 1.62 μM (Toshihisa et al., 1992), or 1.25 μM in purified human renal renin acting on pure human plasma angiotensingen at pH 5.7 (Cumin et al., 1987), 1.54 μM at pH 6.5 (Slater and Strout 1981). The Km value for the reaction between renin and substrate also depends on pH, ionic strength, the medium and the assay procedure used (Poulsen et al., 1976). The Michaelis-Menten constants were increased to 6.3 and 6.1 μM, respectively in the presence of peptide fractions of T4 and T5, indicating decreased binding ability between renin and substrate because of the presence of competitive peptide inhibitors.
row,Substance,RENIN INHIBITION %
1,SEQ ID NO. 2: peptide identified within the bioactive fractions of yellow pea protein hydrolysate (KF; listed as Pisum sativum),28.78%
2,SEQ ID NO. 12: peptide identified within the bioactive fractions of yellow pea protein hydrolysate (FQ; listed as Pisum sativum),8.64%
3,SEQ ID NO. 11: peptide identified within the bioactive fractions of yellow pea protein hydrolysate (FK; listed as Pisum sativum),8.92%
4,SEQ ID NO. 1: peptide identified within the bioactive fractions of yellow pea protein hydrolysate (IR; listed as Pisum sativum),49.11%
5,SEQ ID NO. 28: peptide identified within the bioactive fractions of yellow pea protein hydrolysate (LW; listed as Pisum sativum),37.15%
6,SEQ ID NO. 27: peptide identified within the bioactive fractions of yellow pea protein hydrolysate (IW; listed as Pisum sativum),69.18%
7,SEQ ID NO. 3: peptide identified within the bioactive fractions of yellow pea protein hydrolysate (EF; listed as Pisum sativum),22.36%
8,SEQ ID NO. 5: peptide identified within the bioactive fractions of yellow pea protein hydrolysate (NR; listed as Pisum sativum),25.36%
9,SEQ ID NO. 10: peptide identified within the bioactive fractions of yellow pea protein hydrolysate (RF; listed as Pisum sativum),6.35%
10,SEQ ID NO. 8: peptide identified within the bioactive fractions of yellow pea protein hydrolysate (YR; listed as Pisum sativum),15.13%
11,SEQ ID NO. 9: peptide identified within the bioactive fractions of yellow pea protein hydrolysate (FT; listed as Pisum sativum),20.40%
